Laboratory results: ChEMBL document CHEMBL6083227, “Novel sulfonamides unveiled as potent anti-lung cancer agents via tumor pyruvate kinase M2 activation” (RSC Med Chem, 2024)

Key:
A549 = test: Antiproliferative activity against human A549 cells incubated for 48 hrs by Alamar blue staining based assay; settings: A549, 48 h
BEAS-2B = test: Antiproliferative activity against human BEAS-2B cells incubated for 48 hrs by Alamar blue staining based assay

SMILES	IC50 (A549) [nM]	IC50 (BEAS-2B) [µM]
Cc1ccc(S(=O)(=O)N2CCN(CC(=O)c3cnc4ccccn34)CC2)cc1	1670	51.1
O=C(CN1CCN(S(=O)(=O)c2ccc(Cl)s2)CC1)c1cnc2ccccn12	1320	48.9
Cc1cc(C)c(S(=O)(=O)N2CCN(CC(=O)c3cnc4ncccn34)CC2)c(C)c1	1060	51.4
O=C(CN1CCN(S(=O)(=O)c2ccc(Br)cc2)CC1)c1cnc2ccccn12	1740	64.2
O=C(CN1CCN(S(=O)(=O)c2ccc(Br)cc2)CC1)c1cnc2ncccn12	1330	20.8
COc1ccc(Br)cc1S(=O)(=O)N1CCN(CC(=O)c2cnc3ncccn23)CC1	1540	39.1
O=C(CN1CCN(S(=O)(=O)c2ccc(Cl)s2)CC1)c1cnc2ncccn12	1750	9.29
O=C(CN1CCN(S(=O)(=O)C2CC2)CC1)c1cnc2ccccn12	1240	50.5
N#Cc1ccccc1S(=O)(=O)N1CCN(CC(=O)c2cnc3ncccn23)CC1	1720	46.3
O=C(CN1CCN(S(=O)(=O)c2ccc(F)cc2)CC1)c1cnc2ncccn12	1480	20
O=C(CN1CCN(S(=O)(=O)c2cccs2)CC1)c1cnc2ncccn12	1470	45
COc1ccc(S(=O)(=O)N2CCN(CC(=O)c3cnc4ncccn34)CC2)cc1	1480	28.4
